These are literature values, as cited in patent publication US20260126455A1, “Methods and Dosing Regimens for Preventing or Delaying Onset of Alzheimer's Disease and Other Forms of Dementia and Mild Cognitive Impairment” (priority 2020, published 2026).

The series relates to ischemic brain. The note with it: rat, in vivo; cited from earlier work.

In the case of VEGF, the BBB leakage result is reported as “exacerbated BBB leakage”.
